As a reminder, the IC50 is the midpoint of a concentration-inhibition curve. Broadly, the bioavailability is dose-corrected exposure relative to a reference, in per cent.

Chains of the proteins cited; added tags and fusions are not shown.
UniProt P27338, whole entry: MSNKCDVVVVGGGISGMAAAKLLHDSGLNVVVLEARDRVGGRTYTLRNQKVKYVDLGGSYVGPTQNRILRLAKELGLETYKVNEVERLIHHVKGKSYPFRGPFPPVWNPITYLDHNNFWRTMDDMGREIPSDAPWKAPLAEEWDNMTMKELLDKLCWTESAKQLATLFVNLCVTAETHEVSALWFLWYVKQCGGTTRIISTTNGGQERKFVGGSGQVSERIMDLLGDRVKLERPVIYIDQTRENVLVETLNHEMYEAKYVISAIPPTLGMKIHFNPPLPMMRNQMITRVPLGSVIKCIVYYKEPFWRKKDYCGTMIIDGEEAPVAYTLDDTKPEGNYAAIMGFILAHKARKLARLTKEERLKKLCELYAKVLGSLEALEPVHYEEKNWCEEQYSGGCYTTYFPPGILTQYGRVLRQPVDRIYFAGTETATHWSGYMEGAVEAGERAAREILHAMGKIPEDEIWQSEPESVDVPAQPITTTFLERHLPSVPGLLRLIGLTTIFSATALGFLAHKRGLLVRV
UniProt P21397, whole entry: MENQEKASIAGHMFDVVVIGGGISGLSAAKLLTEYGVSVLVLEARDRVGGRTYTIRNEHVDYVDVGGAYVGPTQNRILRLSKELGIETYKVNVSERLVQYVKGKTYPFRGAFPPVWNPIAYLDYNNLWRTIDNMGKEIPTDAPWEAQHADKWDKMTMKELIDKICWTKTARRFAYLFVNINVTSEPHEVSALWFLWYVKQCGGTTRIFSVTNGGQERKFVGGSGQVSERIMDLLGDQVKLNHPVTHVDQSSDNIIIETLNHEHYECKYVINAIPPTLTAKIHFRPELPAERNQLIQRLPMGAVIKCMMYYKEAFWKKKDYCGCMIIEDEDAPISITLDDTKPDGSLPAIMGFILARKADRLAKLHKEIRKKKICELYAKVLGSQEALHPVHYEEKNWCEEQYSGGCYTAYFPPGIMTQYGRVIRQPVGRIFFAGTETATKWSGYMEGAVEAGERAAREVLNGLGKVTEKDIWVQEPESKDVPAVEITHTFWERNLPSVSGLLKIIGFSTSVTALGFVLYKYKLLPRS

Like-named read-outs stand apart in the source and are kept apart here.

In one series the target is MAO-B (Homo sapiens, UniProt P27338). Nature of the series: MAO-B inhibition, kynuramine to 4-hydroxyquinoline, HPLC-fluorescence. Conditions: read-out: MAO-B IC50; kynuramine 10 µM, MAO-B 0.01 mg/mL, 15 min.
For series [1] the following is noted: gavage, cited from earlier work.
For another series, the target named is MAO-A (Homo sapiens, UniProt P21397). The series can be described thus: MAO-A inhibition, kynuramine to 4-hydroxyquinoline, HPLC-fluorescence. As to conditions: read-out: MAO-A IC50; kynuramine 10 µM, MAO-A 0.01 mg/mL, 15 min.
Details of series [2]: method as in PMID 23627552. As to conditions: gavage bolus, cited from earlier work.

As for isoeugenol, the IC50 at MAO-B is 102 ± 5 µM; on MAO-A it was 3.72 ± 0.2 µM. Further, the absolute bioavailability is on record as 19% in series [1] (female rats) and 10% in series [1] (male rats). For the same substance, the results for the bioavailability in series [2] (female mice) and in series [2] (male mice) were 31% and 28%, respectively.

The values are drawn from publication PMC6364133, “Selectivity of Dietary Phenolics for Inhibition of Human Monoamine Oxidases A and B” (BioMed Research International, 2019).
